# Ab-14 heavy chain CDR variants: yeast mating affinities

Data: MIT Lincoln Laboratory AlphaSeq set, Engelhart et al. 2022, doi:10.1038/s41597-022-01779-4, as distributed in FLAb.

Antigen: PDVDLGDISGINAS, a 14-residue peptide of the SARS-CoV-2 spike HR2 region.

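The starting antibody came from a phage panning campaign against this peptide. The library (AAYL49) carries one to three amino acid substitutions per variant, with no insertions or deletions. The scFvs were displayed on barcoded MATa yeast, the peptide on MATalpha yeast. The frequency of each diploid, read from paired DNA barcodes, reflects how well the two displayed proteins bind. The ratio of observed to expected reads was calibrated, replicate by replicate, on BCL2-family standards whose Kd was known from biolayer interferometry. Each pool was mated in three replicate cultures.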

Each scFv is VH, the linker GGGGSGGGGSGGGGS, VL, as in the parent Ab-14, and differs from it in the CDRs of the heavy chain only.
VH: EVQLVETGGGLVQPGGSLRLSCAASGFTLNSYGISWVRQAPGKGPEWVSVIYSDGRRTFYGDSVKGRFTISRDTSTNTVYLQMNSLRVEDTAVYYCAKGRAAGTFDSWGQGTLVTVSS
VL: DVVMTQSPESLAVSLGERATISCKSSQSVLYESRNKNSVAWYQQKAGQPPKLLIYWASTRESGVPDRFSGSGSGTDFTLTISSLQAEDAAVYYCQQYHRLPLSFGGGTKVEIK

Each variant's VH is given in full.
All variants listed here change R57 of the VH, counted from its first residue.
Each Kd is an estimate from the mating assay, the geometric mean of the replicates in which the pair was seen; lower is stronger.
"nd" marks a missing value. The strain was present, yet no cells mated with the target were sequenced in any replicate, which points to weak or no binding.
Parent in this assay: reference entry 4.4 nM, copy in this library 13 µM (one replicate of three).
Background: pairings of library AAYL49 with three empty control strains gave a value in 15% of cases (median 11 µM, 5th percentile 680 nM). Values in that range, when seen in few replicates, are hard to tell from nonspecific mating.

* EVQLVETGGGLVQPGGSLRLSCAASGFTLNSMGISWVRQAPGKGPEWVSVIYSDGRDTFYGDSVKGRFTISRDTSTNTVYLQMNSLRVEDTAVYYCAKGRAAGTFDSWGQGTLVTVSS: nd (0 of 3 replicates)
* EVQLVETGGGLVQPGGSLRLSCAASGFTLNSYGISWVRQAPGKGPEWVSVIYSDGRNLFYGDSVKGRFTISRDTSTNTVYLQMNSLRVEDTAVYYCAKSRAAGTFDSWGQGTLVTVSS: nd (0 of 3 replicates)
* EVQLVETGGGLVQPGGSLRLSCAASGFTLNSYGISWVRQAPGKGPEWVSVIYSDGRNTFYGDSVKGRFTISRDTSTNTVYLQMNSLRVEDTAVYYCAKGRAAGTFDSWGQGTLVTVSS: 130 nM (1 of 3 replicates)
* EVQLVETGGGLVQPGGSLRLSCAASGFTLNSYGISWVRQAPGKGPEWVSVIYSDGRTTFYGDSVKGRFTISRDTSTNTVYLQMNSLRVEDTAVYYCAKGRAIMTFDSWGQGTLVTVSS: 340 nM (1 of 3 replicates)
* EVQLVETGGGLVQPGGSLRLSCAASEFTLNSYGISWVRQAPGKGPEWVSVIYSDGRFTFYGISVKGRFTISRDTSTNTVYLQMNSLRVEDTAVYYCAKGRAAGTFDSWGQGTLVTVSS: nd (0 of 3 replicates)
* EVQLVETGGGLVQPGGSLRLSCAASGFPINSYGISWVRQAPGKGPEWVSVIYSDGRPTFYGDSVKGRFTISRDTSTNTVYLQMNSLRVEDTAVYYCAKGRAAGTFDSWGQGTLVTVSS: nd (0 of 3 replicates)
* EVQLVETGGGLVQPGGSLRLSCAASGFTLNSYGHSWVRQAPGKGPEWVSVIYSDGRTTFYGDSVKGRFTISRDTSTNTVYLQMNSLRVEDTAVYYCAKGRAAGTFDSWGQGTLVTVSS: 19 µM (2 of 3 replicates)
* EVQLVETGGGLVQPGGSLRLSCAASGFTLMSYGISWVRQAPGKGPEWVSVIYSDGRWTFYGDSVKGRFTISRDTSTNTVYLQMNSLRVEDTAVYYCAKHRAAGTFDSWGQGTLVTVSS: 8.6 µM (2 of 3 replicates)
* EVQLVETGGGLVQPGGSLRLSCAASGFTLNSYGISWVRQAPGKGPEWVSVIYGDGRTTFYGDSVKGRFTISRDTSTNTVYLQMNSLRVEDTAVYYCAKGRAAGTFDSWGQGTLVTVSS: 76 µM (2 of 3 replicates)
* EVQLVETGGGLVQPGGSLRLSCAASGPTLNSYGISWVRQAPGKGPEWVSVIYSDGRSTFYGDSVKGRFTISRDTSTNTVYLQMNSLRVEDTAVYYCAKGRAALTFDSWGQGTLVTVSS: nd (0 of 3 replicates)
* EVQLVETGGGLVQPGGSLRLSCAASGFTLNSYGISWVRQAPGKGPEWVSVIYSDGRNTFYGDSIKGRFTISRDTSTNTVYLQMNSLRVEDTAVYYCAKGRAAGEFDSWGQGTLVTVSS: nd (0 of 3 replicates)
* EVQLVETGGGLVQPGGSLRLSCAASGFTLNSYGISWVRQAPGKGPEWVSVIYEDGRETFYGDSVKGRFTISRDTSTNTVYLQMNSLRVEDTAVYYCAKGRAAGTFVSWGQGTLVTVSS: nd (0 of 3 replicates)
* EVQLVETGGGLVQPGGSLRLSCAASGFTSNSYGISWVRQAPGKGPEWVSVIYSDGRVTFYGDSLKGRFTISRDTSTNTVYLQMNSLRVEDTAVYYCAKGRAAGTFDSWGQGTLVTVSS: nd (0 of 3 replicates)
* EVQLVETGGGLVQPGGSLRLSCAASGFTLNSYGISWVRQAPGKGPEWVSVIYSDGCLTFYGDSVKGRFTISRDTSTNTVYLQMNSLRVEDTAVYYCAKGRAAGNFDSWGQGTLVTVSS: 34 µM (2 of 3 replicates)
* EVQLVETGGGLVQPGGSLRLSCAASGFTLNSYEISWVRQAPGKGPEWVSVIYSDGQITFYGDSVKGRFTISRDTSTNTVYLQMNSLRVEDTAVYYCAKGRAAGTFDSWGQGTLVTVSS: 43 µM (2 of 3 replicates)
* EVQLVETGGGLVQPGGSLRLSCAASGFTLNDYGISWVRQAPGKGPEWVSVIYSDGRQPFYGDSVKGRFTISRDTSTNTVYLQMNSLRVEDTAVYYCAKGRAAGTFDSWGQGTLVTVSS: 52 µM (1 of 3 replicates)

2 of these entries, quoted again:

* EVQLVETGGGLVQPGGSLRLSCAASGFTLNDYGISWVRQAPGKGPEWVSVIYSDGRQPFYGDSVKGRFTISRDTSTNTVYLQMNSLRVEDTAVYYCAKGRAAGTFDSWGQGTLVTVSS: 52 µM (1 of 3 replicates)
* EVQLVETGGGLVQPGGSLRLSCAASEFTLNSYGISWVRQAPGKGPEWVSVIYSDGRFTFYGISVKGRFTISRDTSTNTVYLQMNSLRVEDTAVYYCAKGRAAGTFDSWGQGTLVTVSS: nd (0 of 3 replicates)